Data on three molecules can be found in ChEMBL document CHEMBL3430320, “Prediction of Thorough QT study results using action potential simulations based on ion channel screens” (J Pharmacol Toxicol Methods, 2014).

Sequences of proteins named here, by UniProt entry; tags and fusion partners are left off. A change or cut given only in a name is not applied to a line headed by its entry.
UniProt Q12809: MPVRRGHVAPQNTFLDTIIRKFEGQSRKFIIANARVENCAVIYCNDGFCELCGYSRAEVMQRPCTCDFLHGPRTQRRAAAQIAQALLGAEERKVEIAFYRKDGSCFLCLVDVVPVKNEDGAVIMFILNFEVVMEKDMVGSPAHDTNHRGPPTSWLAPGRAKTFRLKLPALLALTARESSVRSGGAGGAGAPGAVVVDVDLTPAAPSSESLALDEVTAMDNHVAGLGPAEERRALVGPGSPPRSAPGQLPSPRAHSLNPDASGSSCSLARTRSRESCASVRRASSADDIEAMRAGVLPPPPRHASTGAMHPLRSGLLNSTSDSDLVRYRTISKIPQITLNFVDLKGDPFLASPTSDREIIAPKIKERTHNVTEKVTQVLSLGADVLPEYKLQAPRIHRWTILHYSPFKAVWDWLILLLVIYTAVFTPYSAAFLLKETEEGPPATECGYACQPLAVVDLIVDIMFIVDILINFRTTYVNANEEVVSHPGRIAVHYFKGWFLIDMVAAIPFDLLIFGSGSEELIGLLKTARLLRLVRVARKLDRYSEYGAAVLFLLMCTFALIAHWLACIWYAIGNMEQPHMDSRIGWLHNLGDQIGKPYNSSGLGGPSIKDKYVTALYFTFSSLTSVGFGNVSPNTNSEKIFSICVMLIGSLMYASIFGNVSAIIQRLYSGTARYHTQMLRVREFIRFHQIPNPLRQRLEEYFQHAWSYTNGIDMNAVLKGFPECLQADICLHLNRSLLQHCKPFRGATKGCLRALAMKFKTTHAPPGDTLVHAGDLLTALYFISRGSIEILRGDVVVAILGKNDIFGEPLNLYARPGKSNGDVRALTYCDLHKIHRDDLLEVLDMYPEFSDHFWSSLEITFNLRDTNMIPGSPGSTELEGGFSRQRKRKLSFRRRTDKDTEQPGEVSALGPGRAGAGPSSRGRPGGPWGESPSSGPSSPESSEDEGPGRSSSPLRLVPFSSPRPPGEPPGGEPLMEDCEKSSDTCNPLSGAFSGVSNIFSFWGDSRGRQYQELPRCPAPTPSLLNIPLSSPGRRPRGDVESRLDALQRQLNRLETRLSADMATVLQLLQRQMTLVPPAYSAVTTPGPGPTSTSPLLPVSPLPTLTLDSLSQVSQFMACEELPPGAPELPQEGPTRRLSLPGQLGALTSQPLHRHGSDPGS

Series [1] addresses T1, Voltage-gated inwardly rectifying potassium channel KCNH2 (Homo sapiens, UniProt Q12809). The experiment in a line: Inhibition of rapid delayed inward rectifying potassium current (IKr) in Chinese hamster ovary (CHO) K1 cells stably expressing hERG measured using IonWorks Quattro automated patch clamp platform. It counts as functional, cell-based, Cricetulus griseus. In general terms: Block of hERG is tested as a sign of cardiac risk.

Series [2] deals with T1, Voltage-gated inwardly rectifying potassium channel KCNH2. Kind of series: Inhibition of rapid delayed inward rectifying potassium current (IKr) measured using manual patch clamp assay. It is filed as functional. A general note: Patch clamp records ionic current or voltage across a cell membrane.
For series [3] the target is unchanged. The experiment in a line: Inhibition of rapid delayed inward rectifying potassium current (IKr) in Chinese hamster ovary (CHO) cells stable expressing hERG measured using IonWorks Barracuda automated patch clamp platform. It is filed as functional, cell-based, Cricetulus griseus.

One may read the pIC50 as the negative decadic logarithm of the IC50, by convention in mol/L. Low values mean a large IC50, high ones a small IC50. As to `C[C@@H](O)[C@H]1C(=O)N2C(C(=O)O)=C(S[C@@H]3CN[C@H](CNS(N)(=O)=O)C3)[C@H](C)[C@H]12` [DORIPENEM], in series [1], the pIC50 worked out at 2.1.
The IC50 is the concentration that inhibits the measured activity by half. High values mean a need for much substance, low ones inhibition by little substance. With `Cc1cn(-c2cc(NC(=O)c3ccc(C)c(Nc4nccc(-c5cccnc5)n4)c3)cc(C(F)(F)F)c2)cn1` [NILOTINIB], the IC50 in series [2] is 0.126 µM; in series [1], 63.1 µM. In series [3], the pIC50 entry is “Inactive”.
For `N[C@@H](CC(=O)N1CCn2c(nnc2C(F)(F)F)C1)Cc1cc(F)c(F)cc1F` [SITAGLIPTIN], the IC50 in series [2] is 158 µM.
